Measurements reported in patent publication US7220875B2, “Amino acid derived prodrugs of propofol, compositions and uses thereof” (priority 2003, dated 2007).

How the values were obtained:
[1] = Caco-2 homogenate S9 stability; assay type: in vitro ADME; conditions: Caco-2 S9 (0.5 mg protein per mL), prodrug 5 μM, 37° C.
Method: (§1) The stability of propofol prodrugs were evaluated in one or more in vitro systems using a variety of tissue preparations following methods known in the art. Tissues were obtained from commercial sources (e.g., Pel-Freez Biologicals, Rogers, Ark., or GenTest Corporation, Woburn, Mass.). Experimental conditions used for the in vitro studies are described in Table 1 below. Each preparation was incubated with test compound at 37° C. for one hour. Aliquots (50 μL) were removed at 0, 30, and 60 min and quenched with 0.1% trifluoroacetic acid in acetonitrile. Samples were then centrifuged and analyzed by LC/MS/MS (see Examples 59 and 60 below for method details). Stability of drug conjugates towards specific enzymes (e.g., peptidases, etc.) were also assessed in vitro by incubation with the purified enzyme:
Caco-2 Homogenate S9 Stability: Caco-2 cells were grown for 21 days prior to harvesting. Culture medium was removed and cell monolayers were rinsed and scraped off into ice-cold 10 mM sodium phosphate/0.15 M potassium chloride, pH 7.4. Cells were lysed by sonication at 4° C. using a probe sonicator. Lysed cells were then transferred into 1.5 mL centrifuge vials and centrifuged at 9000 g for 20 min at 4° C. The resulting supernatant (Caco-2 cell homogenate S9 fraction) was aliquoted into 0.5 mL vials and stored at −80° C. until used.
For stability studies, prodrug (5 μM) was incubated in Caco-2 homogenate S9 fraction (0.5 mg protein per mL) for 60 min at 37° C. Concentrations of intact prodrug and released propofol were determined at zero time and 60 minutes using LC/MS/MS.

pancreatin = test: Pancreatin stability; assay type: in vitro ADME, porcine; conditions: 1% (w/v) pancreatin, pH 7.5, conjugate 5 μM, 37° C.
Method: as §1
Pancreatin Stability: Stability studies were conducted by incubating conjugate (5 μM) with 1% (w/v) pancreatin (Sigma, P-1625, from porcine pancreas) in 0.025 M Tris buffer containing 0.5 M NaCl (pH 7.5) at 37° C. for 60 min. The reaction was stopped by addition of 2 volumes of methanol. After centrifugation at 14,000 rpm for 10 min, the supernatant was removed and analyzed by LC/MS/MS.

[2] = Enzymatic cleavage of prodrugs in vitro, human liver S9; assay type: in vitro ADME; conditions: Human Liver S9 (0.5 mg/mL), substrate 2.0 μM, NADPH, 37° C.
Method: as §1, with “enzyme: […]” for “enzyme:”

[3] = Enzymatic cleavage of prodrugs in vitro, human plasma; assay type: in vitro ADME; conditions: substrate 2.0 μM, 37° C.
Method: as §1, with “enzyme: […]” for “enzyme:”

[4] = Enzymatic cleavage of prodrugs in vitro, rat plasma; assay type: in vitro ADME; conditions: substrate 2.0 μM, 37° C.
Method: as §1, with “enzyme: […]” for “enzyme:”

[5] = Enzymatic cleavage of prodrugs in vitro, rat liver S9; assay type: in vitro ADME; conditions: Rat Liver S9 (0.5 mg/mL), substrate 2.0 μM, NADPH, 37° C.
Method: as §1, with “enzyme: […]” for “enzyme:”

## H-Lys-Glu(OPropofol)-OH [Compound 250]
[1]
  % of Propofol Released from Propofol Prodrugs after 60 min.: 19%
pancreatin
  % of Propofol Released from Propofol Prodrugs after 60 min.: 0%
[2]
  % of Propofol Released from Propofol Prodrugs after 60 min.: 34%
[3]
  % of Propofol Released from Propofol Prodrugs after 60 min.: 17%
[4]
  % of Propofol Released from Propofol Prodrugs after 60 min.: 79%
[5]
  % of Propofol Released from Propofol Prodrugs after 60 min.: 36%

## H-Ala-OPropofol Hydrochloride [Compound 152]
[1]
  % of Propofol Released from Propofol Prodrugs after 60 min.: 6%
pancreatin
  % of Propofol Released from Propofol Prodrugs after 60 min.: 1%
[2]
  % of Propofol Released from Propofol Prodrugs after 60 min.: 8%
[3]
  % of Propofol Released from Propofol Prodrugs after 60 min.: 0%
[4]
  % of Propofol Released from Propofol Prodrugs after 60 min.: 37%
[5]
  % of Propofol Released from Propofol Prodrugs after 60 min.: 11%

## H-Ser-Ser(β-OC(O)OPropofol)-OH [Compound 208]
[1]
  % of Propofol Released from Propofol Prodrugs after 60 min.: 21%
pancreatin
  % of Propofol Released from Propofol Prodrugs after 60 min.: 25%
[2]
  % of Propofol Released from Propofol Prodrugs after 60 min.: 3%
[3]
  % of Propofol Released from Propofol Prodrugs after 60 min.: 2%
